The source of these data is paper PMC10123104 (Nucleic Acids Research, 2023).

The chains behind the UniProt entries cited, without tags or fusion partners. Where a name states a change or a piece, a line headed by the entry shows the natural chain unless it says otherwise.
UniProt P30177: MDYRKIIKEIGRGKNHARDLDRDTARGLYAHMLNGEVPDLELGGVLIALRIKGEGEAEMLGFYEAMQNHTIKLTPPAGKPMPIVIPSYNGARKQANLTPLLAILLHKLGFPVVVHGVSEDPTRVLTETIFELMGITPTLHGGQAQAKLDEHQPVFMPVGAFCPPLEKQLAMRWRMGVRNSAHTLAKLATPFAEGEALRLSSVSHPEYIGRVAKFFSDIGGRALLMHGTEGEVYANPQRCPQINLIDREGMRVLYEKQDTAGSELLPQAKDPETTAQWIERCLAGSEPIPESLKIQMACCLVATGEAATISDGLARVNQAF

SMILES strings stand for the structures. Like-named read-outs stand apart in the source and are kept apart here.

The target of the assay is YbiB (Escherichia coli, UniProt P30177). It counts as binding. Particulars: ITC, YbiB WT in syringe.

Take `CC[C@H](C)[C@H](NC(=O)[C@H](CCC(=O)O)NC(=O)[C@H](CCC(=O)O)NC(=O)[C@@H](N)CC(C)C)C(=O)N[C@@H](C)C(=O)N[C@@H](CCC(=O)O)C(=O)N[C@@H](CCC(=O)O)C(=O)N[C@@H](CC(=O)O)C(=O)N[C@@H](CC(=O)O)C(=O)N[C@@H](CCC(=O)O)C(=O)N[C@@H](CC(=O)O)C(=O)N[C@@H](C)C(=O)N[C@@H](CC(=O)O)C(=O)N[C@@H](CC(=O)O)C(=O)N[C@@H](CC(=O)O)C(=O)N[C@@H](C)C(=O)N[C@@H](CC(=O)O)C(=O)N[C@@H](CCC(=O)O)C(=O)N[C@@H](CC(=O)O)C(=O)N[C@@H](CC(=O)O)C(=O)O` [peptide4-AA]: the “-TΔS, first binding event” value worked out at 1.22 kcal/mol (repeat 1), 0.874 kcal/mol (repeat 2) and 4.10 kcal/mol (repeat 3).
